The results in this text go back to US8546147B2, “Imidazo[1,2-α]pyrazin-3(7H)-one derivatives bearing a new electron-rich structure” (Universita degli Studi di Siena, priority 2009, dated 2013).

Experiment [1] concerns the target T1, RLuC (donor) and Green Fluorescent Protein GFP (acceptor) (Renilla reniformis, UniProt P27652).
T1 sequence (P27652 1-311): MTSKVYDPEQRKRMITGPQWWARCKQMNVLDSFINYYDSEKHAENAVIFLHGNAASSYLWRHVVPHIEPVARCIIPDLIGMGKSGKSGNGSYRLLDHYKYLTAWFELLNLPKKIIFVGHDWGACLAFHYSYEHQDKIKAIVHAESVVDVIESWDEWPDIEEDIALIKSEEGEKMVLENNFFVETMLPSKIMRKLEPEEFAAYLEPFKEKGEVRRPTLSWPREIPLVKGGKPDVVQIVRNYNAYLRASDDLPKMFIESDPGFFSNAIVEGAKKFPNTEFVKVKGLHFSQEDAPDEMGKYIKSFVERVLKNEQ
To be noted: three different times, FIG. 8-10.

For experiment [2], the target named is T2, Renilla Luciferase (RLuC) (Renilla reniformis, UniProt P27652).
T2 sequence (P27652 1-311): T1 sequence (P27652 1-311)

The structures appear in SMILES notation.

Take `O=c1c(Cc2ccccc2)nc2c(Cc3ccccc3)[nH]c(-c3ccccc3)cn1-2` [Compound 23b, 2,8-Dibenzyl-6-phenylimidazo-[1,2-a]pyrazin-3(7H)-one]: the “emission over time in BRET experiment (in words)” value in experiment [1] is listed as “decrease over time”.
For the compound `O=c1c(Cc2ccccc2)nc2c(Sc3ccc(Cl)cc3)[nH]c(-c3ccccc3)cn1-2` [Compound 23n, 2-Benzyl-8-(4-chlorophenylthio)-6-phenylimidazo[1,2-a]pyrazin-3(7H)-one], the “Biolum. Imax” value in experiment [2] turned out to be 470 nm.
